## Permeability data for macrocyclic peptides

PAMPA is the parallel artificial membrane permeability assay, which has no cells and reads passive diffusion.
Permeability is in 10^-6 cm/s, converted from the database's log10 values; higher is more permeable.

| SMILES | PAMPA (10^-6 cm/s) |
|---|---|
| CC(C)C[C@@H]1NC(=O)[C@@H](CC(C)C)NC(=O)[C@@H](C)NC(=O)[C@H](Cc2ccccc2)NC(=O)[C@@H](CC(C)C)N(C)C(=O)[C@@H]2CCCN2C1=O | 1.4 |
| CCCN1CC(=O)N(C)[C@H](CC(C)C)C(=O)N(C)[C@@H](CC(C)C)C(=O)N2CCC[C@H]2C(=O)N[C@@H](CC(C)C)C(=O)N[C@@H](Cc2ccccc2)C(=O)N2CCC[C@H]2C1=O | 0.6 |
| CC(C)C[C@@H]1C(=O)N[C@@H](Cc2ccccc2)C(=O)N2CCC[C@H]2C(=O)N(C)[C@@H](C)C(=O)N(C)[C@@H](CC(C)C)C(=O)N(C)[C@@H](CC(C)C)C(=O)N2CCC[C@@H]2C(=O)N1C | 4.9 |
| CC(C)C[C@H]1NC(=O)[C@@H](C)N(C)C(=O)[C@H]2CCCN2C(=O)[C@H](Cc2ccccc2)NC(=O)[C@H](CC(C)C)N(C)C(=O)[C@H]2CCCN2C(=O)CN(Cc2ccccc2)C1=O | 1.7 |
| CCCN1CC(=O)N(C)[C@H](CC(C)C)C(=O)N(C)[C@H](CC(C)C)C(=O)N2CCC[C@@H]2C(=O)N[C@@H](CC(C)C)C(=O)N[C@@H](Cc2ccccc2)C(=O)N2CCC[C@@H]2C1=O | 2.8 |
| CC(C)C[C@@H]1NC(=O)[C@H](C)N(C)C(=O)[C@H]2CCCN2C(=O)[C@H](Cc2ccccc2)NC(=O)[C@@H](CC(C)C)N(C)C(=O)[C@H]2CCCN2C(=O)[C@H](CC(C)C)NC1=O | 2.3 |
| CCCN1CC(=O)N[C@H](CC(C)C)C(=O)N(C)[C@@H](CC(C)C)C(=O)N2CCC[C@H]2C(=O)N(C)[C@@H](CC(C)C)C(=O)N[C@@H](Cc2ccccc2)C(=O)N2CCC[C@H]2C1=O | 6.3 |
| CC(C)C[C@@H]1NC(=O)[C@@H](CC(C)C)N(C)C(=O)C[C@H](Cc2ccccc2)NC(=O)[C@H](Cc2ccccc2)NC(=O)[C@@H](CC(C)C)NC(=O)[C@H]2CCCN2C1=O | 6.8 |
| CCCN1CC(=O)N(C)[C@H](CC(C)C)C(=O)N(Cc2ccccc2)CC(=O)N2CCC[C@@H]2C(=O)N(C)[C@@H](CC(C)C)C(=O)N[C@@H](Cc2ccccc2)C1=O | 2.6 |
| CC(C)C[C@@H]1NC(=O)[C@H]2CCCN2C(=O)[C@H](CC(C)C)N(C)C(=O)[C@@H](CC(C)C)NC(=O)[C@@H](C)N(C)C(=O)[C@@H]2CCCN2C(=O)[C@H](Cc2ccccc2)NC1=O | 0.5 |
| CC(C)C[C@@H]1C(=O)N2CCC[C@@H]2C(=O)N[C@H](CC(C)C)C(=O)N[C@@H](Cc2ccccc2)C(=O)N[C@H](C)C(=O)N[C@H](CC(C)C)C(=O)N1C | 0.79 |
| CCCN1CC(=O)N[C@H](CC(C)C)C(=O)N[C@@H](CC(C)C)C(=O)N2CCC[C@H]2C(=O)N[C@@H](CC(C)C)C(=O)N[C@@H](Cc2ccccc2)C(=O)N2CCC[C@@H]2C1=O | 0.89 |
| CC(C)C[C@@H]1NC(=O)C[C@H](Cc2ccccc2)NC(=O)[C@H](Cc2ccccc2)NC(=O)[C@H](CC(C)C)N(C)C(=O)[C@@H]2CCCN2C(=O)[C@H](CC(C)C)N(C)C1=O | 7.2 |
| CC(C)C[C@@H]1C(=O)N(C)[C@@H](CC(C)C)C(=O)N2CCC[C@@H]2C(=O)N(C)[C@@H](CC(C)C)C(=O)N[C@@H](Cc2ccccc2)C(=O)N2CCC[C@H]2C(=O)N(C)[C@@H](C)C(=O)N1C | 3.5 |
| CC(C)C[C@H]1C(=O)N(Cc2ccccc2)CC(=O)N2CCC[C@@H]2C(=O)N(Cc2ccccc2)CC(=O)N[C@@H](Cc2ccccc2)C(=O)N(C)[C@H](C)C(=O)N1C | 3.5 |
| CC(C)C[C@@H]1NC(=O)C[C@H](Cc2ccccc2)NC(=O)[C@@H]2CCCN2C(=O)[C@H](Cc2ccccc2)NC(=O)[C@@H](CC(C)C)NC(=O)[C@@H]2CCCN2C(=O)[C@@H](CC(C)C)N(C)C1=O | 1.8 |
| CC(C)C[C@@H]1C(=O)N(C)[C@@H](CC(C)C)C(=O)N2CCC[C@H]2C(=O)N(C)[C@H](CC(C)C)C(=O)N[C@@H](Cc2ccccc2)C(=O)N2CCC[C@H]2C(=O)N[C@@H](C)C(=O)N1C | 2.4 |

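The data file gives no further conditions (lipid, pH, time, direction or concentration), and values from different papers need not be comparable. Other peptides of the study may be missing here. Entries at the database's floor value (log10 P of -10) are not listed.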

Collected by the curators of CycPeptMPDB (Li et al. 2023) from Townsend et al. 2020, doi:10.26434/chemrxiv.13335941.v1.